{
  "source": "patent US5663157A",
  "about": "“22-en-25-oxa derivatives in the vitamin D series, process for their production, pharmaceutical preparations containing these derivatives as well as their use as pharmaceutical agents” (Schering Aktiengesellschaft, priority 1992, dated 1997)",
  "conditions": "calcitriol 2 μg/kg s.c., 22 hours after administration; solvent control 3.0 mmol/l",
  "data": [
    {"smiles": "C=C1/C(=C\\C=C2/CCC[C@]3(C)[C@@H]([C@H](C)CCCC(C)(C)O)CC[C@@H]23)C[C@@H](O)C[C@@H]1O", "note": "[calcitriol, 1α,25-Dihydroxycholecalciferol, reference compound]", "values": [
      {"measurement": "serum calcium concentration", "result": 3.2, "unit": "mmol/L"}
    ]}
  ]
}
